Test results from patent EP2884284A1, “Dry diagnostic reagent” (priority 2013, dated 2015).
Where two headings read alike, the source gives them in different places. One block for each substance: values may come before it.

Legend:
[1] = Moisture uptake over saturated K2SO4 solution at about 100% relative humidity; settings: about 25°C, amorphous except for CaCl2
[2] = Moisture uptake, modified Ph. Eur. 5.11 hygroscopicity method; format: physicochemical; settings: mass increase during 24h storage over saturated ammonium sulfate solution, 25°C, about 100 mg
Protocol: It determines the mass increase (% (m/mo)) during a 24h storage period over a saturated ammonium sulfate solution.

[3] = Solubility, Ph. Eur. 5.11 procedure in TRIS buffer; settings: 100mg substance, TRIS buffer isotonic pH = 7.4, 25.0°C, visual after 1 min. mixing and 15 min. storage
Description: Table 3: Categorization of solubility according to Ph. Eur. 7.4

[4] = cited from earlier work
[5] = Glass transition temperature Tg by differential scanning calorimetry; format: physicochemical
Protocol: Hydranal® Coulomat AG Oven served as a reagent. About 10 mg of the substance was used for an expected residual moisture between 5 - 10%(m/m) and about 50 - 80 mg were used for an expected moisture content […]. […]
Primary drying was carried out at Tinlet = -30° C / 30mtorr for 15h followed by secondary drying at 40°C / 30mtorr for 6h with a heating rate between the two steps of 0.3 °C/min. The glass transition temperature as well as the residual moisture content were measured after freeze drying for the respective substance.

Substance: calcium ascorbate [reference compound]
Uptake rate during 3h storage at 99.9 % rel. humidity (sat. K2SO4 sol.) [1]: 0.449 ratio compared to CaCl2

Substance: calcium lactobionate pantothenate [CLBP]
Uptake rate during 3h storage at 99.9 % rel. humidity (sat. K2SO4 sol.) [1]: 0.637 ratio compared to CaCl2
Ph. Eur. method Hygroscopicity [2]: 25.39 %(m/mo
Ph. Eur. method Solubility [3]: very soluble

Substance: Calcium lacto ascorbate [CLA]
Uptake rate during 3h storage at 99.9 % rel. humidity (sat. K2SO4 sol.) [1]: 0.638 ratio compared to CaCl2
Ph. Eur. method Hygroscopicity [2]: 30.51 %(m/mo
Ph. Eur. method Solubility [3]: very soluble

Substance: calcium gluconate [CG, reference compound]
Ph. Eur. method Solubility [3]: sparingly soluble***
solubility in water ([4]; background statement): 35 mg/mL
solubility in water ([4]; stated in Example 1): 70 mM

Substance: calcium ascorbate lactobionate [CALB]
Uptake rate during 3h storage at 99.9 % rel. humidity (sat. K2SO4 sol.) [1]: 0.629 ratio compared to CaCl2
Ph. Eur. method Hygroscopicity [2]: 23.63 %(m/mo
Ph. Eur. method Solubility [3]: very soluble
Tg ([5]; CALB ratio 0, moisture content 0 %(m/m)): 121.13 °C
Tg ([5]; CALB ratio 0, moisture content 4.68 %(m/m)): 72.34 °C
Tg ([5]; CALB ratio 0, moisture content 6.93 %(m/m)): 58.83 °C
Tg ([5]; CALB ratio 0, moisture content 8.09 %(m/m)): 42.97 °C
Tg ([5]; CALB ratio 0, moisture content 14.18 %(m/m)): 8.59 °C
Tg ([5]; CALB ratio 23.54, moisture content 0 %(m/m)): 128.97 °C
Tg ([5]; CALB ratio 23.54, moisture content 4.30 %(m/m)): 81.00 °C
Tg ([5]; CALB ratio 23.54, moisture content 8.62 %(m/m)): 48.33 °C
Tg ([5]; CALB ratio 23.54, moisture content 10.95 %(m/m)): 40.12 °C
Tg ([5]; CALB ratio 64.23, moisture content 0 %(m/m)): 140.90 °C
Tg ([5]; CALB ratio 64.23, moisture content 4.82 %(m/m)): 84.55 °C
Tg ([5]; CALB ratio 64.23, moisture content 6.29 %(m/m)): 77.15 °C
Tg ([5]; CALB ratio 64.23, moisture content 8.32 %(m/m)): 60.75 °C
Tg ([5]; CALB ratio 64.23, moisture content 11.68 %(m/m)): 32.61 °C
Tg ([5]; CALB ratio %(m(CA)/m(CLB)) = 100, moisture content 0 %(m/m) (annealed)): 140.09 °C
Tg ([5]; CALB ratio %(m(CA)/m(CLB)) = 100, moisture content 5.10 %(m/m)): 82.46 °C
Tg ([5]; CALB ratio %(m(CA)/m(CLB)) = 100, moisture content 8.20 %(m/m)): 64.81 °C
Tg ([5]; CALB ratio %(m(CA)/m(CLB)) = 100, moisture content 13.87 %(m/m)): 30.65 °C

Results, then the substance that gave them:

Ph. Eur. method Hygroscopicity [2]: 19.91 %(m/mo
Ph. Eur. method Solubility [3]: very soluble
Substance: calcium lacto gluconate [CLG ME]

Uptake rate during 3h storage at 99.9 % rel. humidity (sat. K2SO4 sol.) [1]: 0.536 ratio compared to CaCl2
Ph. Eur. method Hygroscopicity [2]: 27.20 %(m/mo
Ph. Eur. method Solubility [3]: freely soluble
Substance: calcium lacto pantothenate [CLP]

Ph. Eur. method Hygroscopicity [2]: 20.44 %(m/mo
Ph. Eur. method Solubility [3]: freely soluble
Substance: calcium lacto gluconate [CLG (2:1)]

Ph. Eur. method Solubility [3]: freely soluble
Substance: calcium lacto lactobionate [CLLB]
